Laboratory results from patent US20250197442A1, “Peptide Synthesis in Aqueous Solution” (priority 2023, published 2025).

| SMILES | Fmoc-Gly content of the clear aqueous solution obtained (aqueous solution with 7.85% DMSO, Tween 80 to Fmoc-Gly approximately 4:1 (w/w)) [%] | Fmoc-Phe content of the clear aqueous solution obtained (aqueous solution with 10.80% DMSO, Tween 80 to Fmoc-Phe approximately 8:1 (w/w)) [%] |
| --- | --- | --- |
| O=C(O)CNC(=O)OCC1c2ccccc2-c2ccccc21 [Fmoc-Gly, Fmoc-Glycine] | 1.07 | – |
| O=C(N[C@@H](Cc1ccccc1)C(=O)O)OCC1c2ccccc2-c2ccccc21 [Fmoc-Phe, Fmoc-Phenylalanine] | – | 0.72 |
